Experimental data reported in ChEMBL document CHEMBL5126672, “Discovery of κ Opioid Receptor (KOR)-Selective d-Tetrapeptides with Improved In Vivo Antinociceptive Effect after Peripheral Administration” (ACS Med Chem Lett, 2022).

Amino acid sequences for entries named in this document (tags omitted). A change or cut given only in a name is not applied to a line headed by its entry.
UniProt P41144: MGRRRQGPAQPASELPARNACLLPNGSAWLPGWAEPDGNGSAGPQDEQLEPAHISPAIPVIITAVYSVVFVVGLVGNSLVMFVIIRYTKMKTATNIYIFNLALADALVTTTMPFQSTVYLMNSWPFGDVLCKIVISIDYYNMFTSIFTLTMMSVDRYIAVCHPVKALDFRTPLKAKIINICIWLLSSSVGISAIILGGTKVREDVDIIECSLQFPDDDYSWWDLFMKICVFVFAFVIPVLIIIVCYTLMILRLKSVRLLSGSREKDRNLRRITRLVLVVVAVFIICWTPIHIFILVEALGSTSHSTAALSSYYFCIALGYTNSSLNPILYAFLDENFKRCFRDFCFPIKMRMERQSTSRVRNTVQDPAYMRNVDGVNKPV

Target: Kappa-type opioid receptor (Cavia porcellus, UniProt P41144)

`CN(C(=O)Cc1ccccc1)[C@H]1CC[C@@]2(CCCO2)C[C@@H]1N1CCCC1` gave a pEC50 of 5.84.
